Measurements from article PMC7723054.
The list shows a part of the results.

T1: LIN28A (human?, UniProt Q9H9Z2 1-209)
T1 sequence: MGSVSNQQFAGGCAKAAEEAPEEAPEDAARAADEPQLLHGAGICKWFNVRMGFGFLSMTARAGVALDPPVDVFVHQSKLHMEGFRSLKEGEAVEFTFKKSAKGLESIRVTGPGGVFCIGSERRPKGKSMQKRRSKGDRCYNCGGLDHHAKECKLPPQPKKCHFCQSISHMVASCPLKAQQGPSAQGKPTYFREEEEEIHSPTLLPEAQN

T2: CIRBP (Homo sapiens, UniProt Q14011 1-172)
T2 sequence: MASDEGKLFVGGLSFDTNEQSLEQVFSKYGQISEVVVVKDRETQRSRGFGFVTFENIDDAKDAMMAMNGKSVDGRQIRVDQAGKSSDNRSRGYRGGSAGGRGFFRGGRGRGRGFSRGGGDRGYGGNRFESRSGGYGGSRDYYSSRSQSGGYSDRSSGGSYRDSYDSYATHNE

T3: DHX36 (Homo sapiens, UniProt Q9H2U1 1-1008)
T3 sequence: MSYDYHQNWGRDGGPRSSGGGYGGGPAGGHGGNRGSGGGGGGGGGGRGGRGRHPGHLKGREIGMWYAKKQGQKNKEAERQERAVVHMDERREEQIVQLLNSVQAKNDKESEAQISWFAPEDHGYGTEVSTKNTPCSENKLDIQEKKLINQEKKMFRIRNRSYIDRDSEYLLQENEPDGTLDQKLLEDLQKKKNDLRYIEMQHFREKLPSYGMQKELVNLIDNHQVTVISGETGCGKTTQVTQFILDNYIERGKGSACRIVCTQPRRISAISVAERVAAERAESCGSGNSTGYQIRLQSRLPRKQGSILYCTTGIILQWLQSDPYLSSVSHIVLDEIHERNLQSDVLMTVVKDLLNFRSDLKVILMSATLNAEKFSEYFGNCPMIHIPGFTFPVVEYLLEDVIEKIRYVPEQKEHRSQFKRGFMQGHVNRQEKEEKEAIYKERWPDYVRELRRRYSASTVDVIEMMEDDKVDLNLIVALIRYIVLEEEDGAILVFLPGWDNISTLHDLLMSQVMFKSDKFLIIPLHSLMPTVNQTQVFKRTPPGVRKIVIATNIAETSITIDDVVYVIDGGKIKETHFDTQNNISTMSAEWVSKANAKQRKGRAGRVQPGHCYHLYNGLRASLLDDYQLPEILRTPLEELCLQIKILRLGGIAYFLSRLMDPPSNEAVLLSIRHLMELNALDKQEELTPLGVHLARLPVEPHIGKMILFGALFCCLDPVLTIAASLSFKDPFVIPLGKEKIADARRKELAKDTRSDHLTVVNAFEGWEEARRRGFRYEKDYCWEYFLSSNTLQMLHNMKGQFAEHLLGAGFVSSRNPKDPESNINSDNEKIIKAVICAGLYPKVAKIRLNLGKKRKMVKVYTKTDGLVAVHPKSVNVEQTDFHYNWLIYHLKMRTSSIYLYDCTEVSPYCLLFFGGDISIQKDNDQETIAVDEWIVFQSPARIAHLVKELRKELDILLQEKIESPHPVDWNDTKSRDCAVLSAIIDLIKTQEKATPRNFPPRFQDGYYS

B1: hsa-mir-499a (structured_RNA)
RNA: GGGACAGGCAGGUGCUUUACCGAUUAAGGGUGUACGAAGUUUCAGCUGUUUAACUCCUCUCCACGUGAACAGCUGAAGCUUCGUGCAC
B2: hsa-mir-1306 (structured_RNA)
RNA: GGGAAAACCUACGGUAUUGGAGUUGUCUGGUGUACGAAGUUUCAGCACGUCCAGUGGUGCAGAGGUAAUGGACGUGCUGAAGCUUCGUGCAC
B3: hsa-mir-6876 (structured_RNA)
RNA: GGGAUACAAUGCAGGCCAAGCAGCAACCGGUGUACGAAGUUUCAGCAGUUCAGGAGGUGGCACUGCUGUGUGUGAGCUGCUGAAGCUUCGUGCAC
B4: hsa-mir-7162 (structured_RNA)
RNA: GGGAACUCGAUCGCGCGAUGAUAGCAAAGGUGUACGAAGUUUCAGCGCUGAACCCCUGCCCCUGGAGCCCCCAGCAGGGCCCUCGCUGAAGCUUCGUGCAC
B5: hsa-mir-497 (structured_RNA)
RNA: GGGAGAGAAAGUAGAAUCCCGGGUAGCAGGUGUACGAAGUUUCAGCUUUGUACGGCACUGUGGCCACGUCCAAAGCUGAAGCUUCGUGCAC
B6: hsa-mir-4300 (structured_RNA)
RNA: GGGACCACCUCGGGGAUUACCUACUGUCGGUGUACGAAGUUUCAGCAUCAGCAGAGACAUGAGGUGAUCAAAAACCUUUUUUCAAAGCAGUGGGGCUGAAGCUUCGUGCAC
B7: hsa-mir-6891 (structured_RNA)
RNA: GGGACAGUAAUCUUUUAGAGCGAGCCGGGGUGUACGAAGUUUCAGCAGGGGUCAUAUCUCUUCUCAGGGAAAGCAGGAGCCCUUCAGCAGGGUCAGGGCCCCUGCUGAAGCUUCGUGCAC
B8: hsa-mir-27b (structured_RNA)
RNA: GGGAAUCUAGAUGUAUCGUAAGCACAGAGGUGUACGAAGUUUCAGCUGAACAGUGAUUGGUUUCCGCUUUGUUCAGCUGAAGCUUCGUGCAC
B9: hsa-mir-5688 (structured_RNA)
RNA: GGGAAUAAUUUCCUGUCCCACUAGCCACGGUGUACGAAGUUUCAGCAUUAUGUUUUGGACAUAGAAACAUAACGCUGAAGCUUCGUGCAC
B10: hsa-mir-219a-2 (structured_RNA)
RNA: GGGACAGCGGAUGGUUACCAUCAAUAGUGGUGUACGAAGUUUCAGCUUCUUGUACGAGUCUGCGGCCAACCGAGAAGCUGAAGCUUCGUGCAC
B11: hsa-mir-4778 (structured_RNA)
RNA: GGGAGGAGAGCAUACACCGUCACUAUCUGGUGUACGAAGUUUCAGCAAGAGGUAAGAAGAAGUGAAGCCCUCUUGCUGAAGCUUCGUGCAC
B12: hsa-mir-6792 (structured_RNA)
RNA: GGGAACCCCGGUUAUUUGAUGUACGGUUGGUGUACGAAGUUUCAGCGUGAUGUGAGGAGCAACAGGCACCCUCCUGCUGAAGCUUCGUGCAC
B13: hsa-let-7f-2 (structured_RNA)
RNA: GGGACAAGCGUUAAGGCAAGCUACCCACGGUGUACGAAGUUUCAGCAUAGUUUUAGGGUCAUACCCCAUCUUGGAGAUAACUAUGCUGAAGCUUCGUGCAC
B14: hsa-mir-4435-1_4435-2 (structured_RNA)
RNA: GGGAAGAUGCAGAACUGACCUAUUACGGGGUGUACGAAGUUUCAGCGAGGGAUGAGUGCACUUCACCUGCGCUGAAGCUUCGUGCAC
B15: hsa-mir-6895 (structured_RNA)
RNA: GGGAACUGUUCGCCAAACGCCGGUUAAAGGUGUACGAAGUUUCAGCCACAGAGUAAGCAUCAAUAGCAUUGGCAAGUUGAACUGAGCUGUCGCUGAAGCUUCGUGCAC
B16: hsa-mir-1224 (structured_RNA)
RNA: GGGACGGCAGCCUUCAGUUCCUAGUCAAGGUGUACGAAGUUUCAGCGUGGAGGGUGGUGCCGCCGGGGCCGGGCGCUGUUUCAGCUCGCUUCUCCCCCCACGCUGAAGCUUCGUGCAC
B17: hsa-mir-6821 (structured_RNA)
RNA: GGGAGACGAUGUAAUGAAAACCGAUGUCGGUGUACGAAGUUUCAGCGCGGGGGUGGGGGCCUCGCCCUGCUUGGGCCCUCCCUGACGCUGAAGCUUCGUGCAC
B18: PARIS_ID18 (structured_RNA)
RNA: GGGAACGGAUGGCUGUAUCCUCUGAAAUGGUGUACGAAGUUUCAGCUCACUGGUCUUGUAAUUAAAAUUCAAACACUAUAGAAAAAGGCCAUGUAGAGCUGAAGCUUCGUGCAC
B19: hsa-mir-1251 (structured_RNA)
RNA: GGGACCGCUCAAUCAAGCUUAAGUGCAGGGUGUACGAAGUUUCAGCGGCGCUUCUCCUUCUGAACAGAGCGCUGCUGAAGCUUCGUGCAC
B20: hsa-mir-30c-2 (structured_RNA)
RNA: GGGACGAAUUGCCCAUCCCUAAAACCAGGGUGUACGAAGUUUCAGCUCAGCUGUGGAAAGUAAGAAAGCUGGGCUGAAGCUUCGUGCAC
B21: hsa-mir-621 (structured_RNA)
RNA: GGGACCGGAGUAAUGUCUAAACCGUGCAGGUGUACGAAGUUUCAGCUGCUCUGAUGAAGACCCAUGUGGCGCUGAAGCUUCGUGCAC
B22: hsa-mir-3158-2 (structured_RNA)
RNA: GGGAGAUAGCGCUGCGGGAGCCUGUAUAGGUGUACGAAGUUUCAGCCCUUCCAAUACCUGUAAGCAGAAGGGCUGAAGCUUCGUGCAC

These binders were tested against U1A (Homo sapiens, UniProt P09012) (assay: FOREST: bead pull-down of RNA structure library v1, barcode microarray; U1A/LIN28A: 20 mM HEPES pH 7.5, 80 mM KCl, 20 mM NaCl, 10% glycerol, 2 mM DTT, 0.1 ug/uL BSA, 4 C; BG4/CIRBP/DHX36: 10 mM Tris-HCl pH 7.5, 100 mM KCl (or LiCl),; high values mean tight binding).

Binder | binding signal
B1 | 0.755 z-score
B2 | 0.755 z-score
B3 | 0.752 z-score
B4 | 0.752 z-score
B5 | 0.749 z-score
B6 | 0.745 z-score
B7 | 2.29 z-score
B8 | 0.743 z-score
B9 | 0.736 z-score
B10 | 0.73 z-score
B11 | 0.729 z-score
B12 | 0.728 z-score
B13 | 0.727 z-score
B14 | 0.727 z-score
B15 | 0.726 z-score
B16 | 0.725 z-score
B17 | 0.722 z-score
B18 | 2.24 z-score
B19 | 0.719 z-score
B20 | 0.719 z-score
B21 | 0.716 z-score
B22 | 0.714 z-score

The binders below were run against T1, LIN28A in the same assay as above.

Binder | binding signal
B1 | 0.0381 z-score
B2 | 1.44 z-score
B3 | 1.43 z-score
B4 | -0.609 z-score
B5 | 1.04 z-score
B6 | 0.326 z-score
B7 | 0.89 z-score
B8 | 1.72 z-score
B9 | 0.288 z-score
B10 | -0.272 z-score
B11 | 1.69 z-score
B12 | 0.589 z-score
B13 | -0.615 z-score
B14 | 0.627 z-score
B15 | -0.745 z-score
B16 | -0.105 z-score
B17 | 1.02 z-score
B18 | 0.243 z-score
B19 | -1.68 z-score
B20 | 0.871 z-score
B21 | 0.422 z-score
B22 | 1.04 z-score

Each binder was assayed against T2, CIRBP in the same assay as above.

Binder | binding signal
B1 | -0.00588 z-score
B2 | 0.398 z-score
B3 | 0.772 z-score
B4 | -0.138 z-score
B5 | 1.44 z-score
B6 | -0.747 z-score
B7 | 1.1 z-score
B8 | 1.5 z-score
B9 | -0.636 z-score
B10 | -0.48 z-score
B11 | 1.98 z-score
B12 | -0.206 z-score
B13 | -1.95 z-score
B14 | 0.117 z-score
B15 | -0.508 z-score
B16 | -1.85 z-score
B17 | 0.399 z-score
B18 | 0.179 z-score
B19 | -0.152 z-score
B20 | -0.299 z-score
B21 | 0.44 z-score
B22 | -0.475 z-score

Each binder was assayed against T3, DHX36 in the same assay as above.

Binder | binding signal
B1 | -0.235 z-score
B2 | 0.475 z-score
B3 | 1.03 z-score
B4 | 0.256 z-score
B5 | 1.35 z-score
B6 | -0.542 z-score
B7 | 0.384 z-score
B8 | -0.104 z-score
B9 | -0.964 z-score
B10 | -0.64 z-score
B11 | 0.719 z-score
B12 | 0.292 z-score
B13 | -0.839 z-score
B14 | 0.0108 z-score
B15 | -0.655 z-score
B16 | 1.14 z-score
B17 | 1.48 z-score
B18 | 0.0392 z-score
B19 | -0.852 z-score
B20 | -0.556 z-score
B21 | -0.397 z-score
B22 | 0.564 z-score
